# Antibody variant affinities, Ab-14 light chain, assay 1

Antigen: PDVDLGDISGINAS, a 14-residue peptide of the SARS-CoV-2 spike HR2 region.

Ab-14 is the parent antibody, in scFv form: VH, then three GGGGS repeats, then VL. The heavy chain is unchanged in all variants.
VH: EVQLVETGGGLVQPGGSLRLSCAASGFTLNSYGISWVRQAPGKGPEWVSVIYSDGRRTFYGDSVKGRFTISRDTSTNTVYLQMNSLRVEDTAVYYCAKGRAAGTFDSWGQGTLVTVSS
VL: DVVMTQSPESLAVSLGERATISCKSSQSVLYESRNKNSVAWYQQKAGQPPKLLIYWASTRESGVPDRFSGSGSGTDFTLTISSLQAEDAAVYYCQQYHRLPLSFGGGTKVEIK

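The starting antibody came from a phage panning campaign against this peptide. Library AAYL50 holds single substitutions and randomly drawn double and triple substitutions in the CDRs. AlphaSeq pools MATa yeast showing the antibodies with MATalpha yeast showing the peptide. Mating (16 h, 30 °C) was followed by selection of diploids and sequencing of their barcodes. Scores were corrected for input abundance and mapped to Kd with protein pairs of known affinity run in the same pool. Mating was done three times.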

The parent's light chain CDRs are KSSQSVLYESRNKNSVA, WASTRES, QQYHRLPLS; each variant's own CDRs replace them letter for letter.
Values are log10 of the apparent Kd in nM; lower means stronger binding.
"n.d." means that the variant was in the library but no mating with the target was seen in that replicate; the authors take this as a sign of poor binding, and no number exists.

{"CDR-L1": "KSSQSVLYESRNKNSVA", "CDR-L2": "WAMTRES", "CDR-L3": "LQYHRLWLS", "log10 Kd (nM) by replicate": "6.64 5.03 6.51", "signal with controls": "4 of 9 (5.10)"}
{"CDR-L1": "PSSQSVLYESRNMNSVA", "CDR-L2": "WASTRES", "CDR-L3": "QQYHRLPLA", "log10 Kd (nM) by replicate": "n.d. n.d. n.d.", "signal with controls": "0 of 9"}
{"CDR-L1": "KKSQSVLYESRNKFSVA", "CDR-L2": "WASTRES", "CDR-L3": "QQLHRLPLS", "log10 Kd (nM) by replicate": "3.15 n.d. n.d.", "signal with controls": "3 of 9 (3.79)"}
{"CDR-L1": "KSSQSVLYEQRNKNYVA", "CDR-L2": "WASTREE", "CDR-L3": "QQYHRLPLS", "log10 Kd (nM) by replicate": "2.62 2.70 2.93", "signal with controls": "1 of 9 (3.53)"}
{"CDR-L1": "KKSQSVLYESRNKNSVA", "CDR-L2": "WKSTRES", "CDR-L3": "QQYHRLPLS", "log10 Kd (nM) by replicate": "n.d. 3.99 n.d.", "signal with controls": "1 of 9 (4.70)"}
{"CDR-L1": "KSSQSVAYESRNKMSVA", "CDR-L2": "WASTRES", "CDR-L3": "QQYHRLSLS", "log10 Kd (nM) by replicate": "2.00 1.70 2.50", "signal with controls": "1 of 9 (3.05)"}
{"CDR-L1": "KSSQSVQYESRNKNSVA", "CDR-L2": "WASTRHS", "CDR-L3": "FQYHRLPLS", "log10 Kd (nM) by replicate": "n.d. n.d. n.d.", "signal with controls": "0 of 9"}
{"CDR-L1": "KSSQSVLYESRNKNSIC", "CDR-L2": "WASTRES", "CDR-L3": "QQYNRLPLS", "log10 Kd (nM) by replicate": "2.70 3.82 2.27", "signal with controls": "0 of 9"}
{"CDR-L1": "KSSQSVLYESGNKNSVA", "CDR-L2": "WASTRYS", "CDR-L3": "QQYHREPLS", "log10 Kd (nM) by replicate": "n.d. n.d. n.d.", "signal with controls": "0 of 9"}
{"CDR-L1": "KSSQSVLYESRHKNSNA", "CDR-L2": "WASTRES", "CDR-L3": "QQYHRLPLS", "log10 Kd (nM) by replicate": "n.d. n.d. n.d.", "signal with controls": "0 of 9"}
{"CDR-L1": "KSNQKVLYESRNKNSVA", "CDR-L2": "WASTRES", "CDR-L3": "QQYHRLPLS", "log10 Kd (nM) by replicate": "2.37 2.72 2.00", "signal with controls": "0 of 9"}
{"CDR-L1": "KVSQSVLYESINKNSVM", "CDR-L2": "WASTRES", "CDR-L3": "QQYHRLPLS", "log10 Kd (nM) by replicate": "n.d. n.d. n.d.", "signal with controls": "0 of 9"}
{"CDR-L1": "KSSQSVLYNSRNKFSVA", "CDR-L2": "WASTRES", "CDR-L3": "QQYHRLPLS", "log10 Kd (nM) by replicate": "1.50 1.36 1.24", "signal with controls": "0 of 9"}
{"CDR-L1": "KSIQSVLYESRNKNSVA", "CDR-L2": "WCSTRES", "CDR-L3": "QQYHRLPLS", "log10 Kd (nM) by replicate": "2.94 n.d. n.d.", "signal with controls": "1 of 9 (2.94)"}
{"CDR-L1": "KSSQSCDYESRNKNSVA", "CDR-L2": "WASTRES", "CDR-L3": "QWYHRLPLS", "log10 Kd (nM) by replicate": "1.09 0.96 1.08", "signal with controls": "1 of 9 (3.27)"}
{"CDR-L1": "FSSQSVLYESRNKNSVA", "CDR-L2": "WAHTRES", "CDR-L3": "QQLHRLPLS", "log10 Kd (nM) by replicate": "n.d. n.d. n.d.", "signal with controls": "0 of 9"}
{"CDR-L1": "KSSQSYLYESRNKNSVA", "CDR-L2": "WASTVES", "CDR-L3": "QQYHRLPLC", "log10 Kd (nM) by replicate": "3.39 n.d. 3.47", "signal with controls": "3 of 9 (4.45)"}
{"CDR-L1": "KSSQSVLPESHNKNSVA", "CDR-L2": "WASTRES", "CDR-L3": "QQYHRLCLS", "log10 Kd (nM) by replicate": "2.72 3.22 2.05", "signal with controls": "1 of 9 (3.36)"}
{"CDR-L1": "KSSQIVLYESRNKNSVG", "CDR-L2": "WASTRES", "CDR-L3": "QQMHRLPLS", "log10 Kd (nM) by replicate": "n.d. n.d. n.d.", "signal with controls": "0 of 9"}
{"CDR-L1": "KSSQSVLYESRNKNSVA", "CDR-L2": "WASTRES", "CDR-L3": "QQPHRLPLS", "log10 Kd (nM) by replicate": "1.78 1.59 1.67", "signal with controls": "2 of 9 (4.56)"}
{"CDR-L1": "KSSQSVLYESENKNSTA", "CDR-L2": "WASTRES", "CDR-L3": "QQYHRLPLS", "log10 Kd (nM) by replicate": "5.86 n.d. 4.66", "signal with controls": "4 of 9 (5.13)"}
{"CDR-L1": "KSSQSVLYESRNKNSVA", "CDR-L2": "WMSTRES", "CDR-L3": "QQYHKLELS", "log10 Kd (nM) by replicate": "n.d. n.d. n.d.", "signal with controls": "0 of 9"}
{"CDR-L1": "KSSQSVLQESRNKNSVT", "CDR-L2": "WASTRES", "CDR-L3": "QQYHRLPLS", "log10 Kd (nM) by replicate": "n.d. 2.54 n.d.", "signal with controls": "0 of 9"}
{"CDR-L1": "QVSQSVLYESRNKNSVC", "CDR-L2": "WASTRES", "CDR-L3": "QQYHRLPLS", "log10 Kd (nM) by replicate": "n.d. n.d. n.d.", "signal with controls": "0 of 9"}
{"CDR-L1": "TSSQSVLYESRNKKSVA", "CDR-L2": "WASTRES", "CDR-L3": "QQYHRLPWS", "log10 Kd (nM) by replicate": "n.d. n.d. 3.56", "signal with controls": "1 of 9 (2.77)"}
{"CDR-L1": "KSSQSVLYESRNKNEVA", "CDR-L2": "WAITRES", "CDR-L3": "QQYHRLNLS", "log10 Kd (nM) by replicate": "n.d. n.d. n.d.", "signal with controls": "1 of 9 (2.85)"}
{"CDR-L1": "KSSQSVLYESRNKNSVA", "CDR-L2": "WWSGRES", "CDR-L3": "QQYHRLPLS", "log10 Kd (nM) by replicate": "n.d. 3.50 n.d.", "signal with controls": "1 of 9 (4.31)"}
{"CDR-L1": "KSSQSVLYSSRNKNSVA", "CDR-L2": "WASTRIS", "CDR-L3": "QQDHRLPLS", "log10 Kd (nM) by replicate": "2.94 2.07 3.40", "signal with controls": "1 of 9 (4.59)"}
{"CDR-L1": "KSSQSVLYESRNKNSCA", "CDR-L2": "WASTRES", "CDR-L3": "QQCHRLCLS", "log10 Kd (nM) by replicate": "n.d. n.d. n.d.", "signal with controls": "0 of 9"}

Excerpt, the first 2 entries:

{"CDR-L1": "KSSQSVLYESRNKNSVA", "CDR-L2": "WAMTRES", "CDR-L3": "LQYHRLWLS", "log10 Kd (nM) by replicate": "6.64 5.03 6.51", "signal with controls": "4 of 9 (5.10)"}
{"CDR-L1": "PSSQSVLYESRNMNSVA", "CDR-L2": "WASTRES", "CDR-L3": "QQYHRLPLA", "log10 Kd (nM) by replicate": "n.d. n.d. n.d.", "signal with controls": "0 of 9"}

Empty control strains, which show no peptide, gave a signal in 18% of pairings with library AAYL50; the median was 4.19 and 95% of these signals were weaker than 2.99. No background was subtracted. Also given: how often the same scFv was detected with the empty control strains, with their mean in brackets.
In this assay the parent's reference entry averaged 0.65; its copy inside this library read 1.68.

Reference: Engelhart et al. 2022, doi:10.1038/s41597-022-01779-4. File: FLAb, binding data.